From article PMC5522751 (Bioorganic & medicinal chemistry, 2017)

Sequences of proteins named here, by UniProt entry; tags and fusion partners are left off. A change or cut given only in a name is not applied to a line headed by its entry.
UniProt P28072: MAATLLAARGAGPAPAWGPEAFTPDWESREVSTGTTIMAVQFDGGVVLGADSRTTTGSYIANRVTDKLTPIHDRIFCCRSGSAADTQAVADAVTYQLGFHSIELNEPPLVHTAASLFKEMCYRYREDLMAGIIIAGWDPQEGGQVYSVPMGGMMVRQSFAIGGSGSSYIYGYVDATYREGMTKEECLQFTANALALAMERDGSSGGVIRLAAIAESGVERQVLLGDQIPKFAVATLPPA
UniProt Q99436: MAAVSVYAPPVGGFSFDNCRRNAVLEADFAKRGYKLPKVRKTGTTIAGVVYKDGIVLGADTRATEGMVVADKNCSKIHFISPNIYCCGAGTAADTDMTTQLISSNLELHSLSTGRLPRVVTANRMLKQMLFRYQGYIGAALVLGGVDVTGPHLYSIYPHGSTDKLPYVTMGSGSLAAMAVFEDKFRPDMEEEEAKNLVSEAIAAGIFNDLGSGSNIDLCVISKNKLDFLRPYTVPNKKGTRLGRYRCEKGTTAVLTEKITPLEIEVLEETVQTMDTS

Molecular target: human 20S proteasome caspase-like (C-L, β1) site (Homo sapiens, UniProt P28072+Q99436)
Test: Fluorogenic assay for 20S human proteasome inhibition, caspase-like site
Format: biochemical

Row | IC50 [µM] | Compound
1 | 2.81 ± 0.24 | CCCCCC[C@@H]1C(=O)O[C@H]1C(=O)NCCCC[C@H](NC(=O)[C@H](C)NC(=O)c1ccc(Br)cc1)C(=O)OCc1ccccc1 [compound 20]
2 | 3.74 ± 0.04 | CCCCCC[C@]1(C)C(=O)O[C@H]1C(=O)NCCCC[C@H](NC(=O)[C@H](C)NC(=O)OCc1ccccc1)C(=O)OCc1ccccc1 [compound 25]
3 | 3.98 ± 0.63 | CCCCCC[C@@]1(C)C(=O)O[C@@H]1C(=O)NCCCC[C@H](NC(=O)[C@H](C)NC(=O)OCc1ccccc1)C(=O)OCc1ccccc1 [compound 26]
4 | 3.62 ± 0.08 | CCCCCC[C@@]1(C)C(=O)O[C@H]1C(=O)NCCCC[C@H](NC(=O)[C@H](C)NC(=O)OCc1ccccc1)C(=O)OCc1ccccc1 [compound 27]
